Laboratory results published in EP4545091A1 (priority 2023, dated 2025).

Experiments:
[1] = system: TMPRSS11D; experiment: Cellular TMPRSS inhibition assay, TMPRSS11D; conditions: protease overexpressed on HEK293T-cells, fluorogenic reporter substrate; Fig. 3C-D
[2] = system: recombinant TMPRSS2; experiment: Recombinant enzyme inhibition assay, TMPRSS2; conditions: fluorogenic reporter substrate, Fig. 3A

CC[C@H](C)[C@@H]1NC(=O)[C@H](Cc2ccccc2)NC(=O)[C@H](C)NC(=O)[C@H](CCCNC(=N)N)NC(=O)[C@@H]2CSSC[C@@H]3NC(=O)CNC(=O)CNC(=O)[C@H](Cc4ccc(O)cc4)NC(=O)[C@@H]4CCCN4C(=O)[C@H](Cc4ccccc4)NC(=O)[C@H](CC(C)C)NC(=O)[C@H](C(C)C)NC(=O)[C@H](CSSC[C@H](NC(=O)[C@H](CCC(=O)O)NC(=O)[C@H](CCCCN)NC(=O)[C@H](CCC(=O)O)NC(=O)[C@H](CO)NC(=O)[C@H](Cc4ccc(O)cc4)NC(=O)[C@H](Cc4ccccc4)NC(=O)[C@H](CCCCN)NC(=O)[C@H](CC(N)=O)NC(=O)CNC(=O)[C@H](CC(N)=O)NC(=O)CNC(=O)[C@H](CCC(N)=O)NC3=O)C(=O)N[C@@H](CCCNC(=N)N)C(=O)N[C@@H](CCC(=O)O)C(=O)N[C@@H](Cc3ccc(O)cc3)C(=O)N[C@H](C(=O)NCC(=O)N[C@H](C(=O)N3CCC[C@H]3C(=O)NCC(=O)N[C@@H](CC(=O)O)C(=O)NCC(=O)N[C@@H](CC(=O)O)C(=O)O)C(C)C)CSSC[C@H](NC(=O)[C@H](C)NC(=O)[C@H](C)NC(=O)[C@@H](N)C(C)C)C(=O)N[C@@H](CC(N)=O)C(=O)N[C@@H](CC(C)C)C(=O)N3CCC[C@H]3C(=O)N[C@@H]([C@@H](C)CC)C(=O)N[C@@H](C(C)C)C(=O)N[C@@H](CCCNC(=N)N)C(=O)NCC(=O)N3CCC[C@H]3C(=O)N2)NC(=O)[C@H](CCCCN)NC(=O)CNC(=O)[C@H](CCCCN)NC(=O)[C@H](C(C)C)NC(=O)[C@H](C)NC(=O)[C@H](CC(=O)O)NC(=O)[C@H](Cc2ccccc2)NC(=O)[C@H](C)NC(=O)[C@H](Cc2c[nH]c3ccccc23)NC(=O)[C@H](CC(C)C)NC(=O)[C@H](CCC(N)=O)NC1=O [Trypstatin]
inhibition of TMPRSS 11D [1]: inhibited
inhibition of TMPRSS2 protease [2]: inhibits
